Test results as given in patent publication US20240415914A1, “Water Dispersible Cannabinoid Compositions” (priority 2021, published 2024).

Format: physicochemical
Method: At each time period, 0.05 g of powder was dissolved in 10 ml-15 of ethanol, diluted to fall within the analytical range, and injected into the LCMSMS for analysis.

## Vitamin E
  Chemical stability over the entire period (result in words): no significant losses
